Test system: pain after surgical extraction of four third molars
Details: 7 Hours post-dose; PR-NRS 0-10
Procedure: 1. Time-Weighted Sum of Total Pain Relief Score From Baseline (0 Hour) to 6 Hours (TOTPAR 0-6) [Time Frame: Baseline (0 hour) up to 6 hours post-dose]. Time-weighted total pain relief (TOTPAR) was measured using a Pain Relief Numerical Rating Scale (PR-NRS) ranging from 0-10 (0=no relief, 10=complete relief). Total pain relief scores (TOTPARs) were calculated by multiplying the pain relief score at each postdose time point by the duration (in hours) since the preceding time point and then summing these values. The minimum value was 0, and the maximum value was 60. Higher scores was indicative of more pain relief.
(§1) 2. […] TOTPAR was measured using a PR-NRS ranging from 0-10 (0=no relief, 10=complete relief). Total pain relief scores (TOTPARs) were calculated by multiplying the pain relief score at each postdose time point by the duration (in hours) since the preceding time point and then summing these values. […]
as §1, with “3.” for “2.”
Time-Weighted Sum of Total Pain Relief Score From baseline (0 Hour) to 8 Hours (TOTPAR 0-8): TOTPAR was measured using a PR-NRS ranging from 0-10 (0=no relief, 10=complete relief). […]

For `COc1ccc2cc([C@H](C)C(=O)O)ccc2c1` [Arm 2: Naproxen Sodium 440 mg, naproxen sodium], the “PAR Score, Least Squares Mean (Standard Error)” value was 6.05 (0.39).
